# Test results as given in PubChem BioAssay AID624467 (The Scripps Research Institute Molecular Screening Center, 2012).
# By UniProt entry, the sequences of proteins in these tests, tags left out.
# UniProt Q96RJ0, whole entry: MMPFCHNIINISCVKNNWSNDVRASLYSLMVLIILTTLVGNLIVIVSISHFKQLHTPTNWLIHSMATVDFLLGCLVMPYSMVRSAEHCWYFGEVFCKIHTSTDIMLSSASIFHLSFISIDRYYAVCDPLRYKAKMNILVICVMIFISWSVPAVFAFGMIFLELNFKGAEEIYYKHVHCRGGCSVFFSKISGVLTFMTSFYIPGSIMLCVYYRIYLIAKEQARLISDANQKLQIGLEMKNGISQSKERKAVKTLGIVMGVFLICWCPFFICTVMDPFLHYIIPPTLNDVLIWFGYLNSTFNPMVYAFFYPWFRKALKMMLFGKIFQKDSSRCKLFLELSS
# The entries are a selection whose mix differs from that of the whole data set. Active and inactive are the calls of the source.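 How the source made its calls: active means activation above the mean activation of all test compounds in the run plus 3 SD (cut at about 38% in these data); inactive means the rest.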
# Biological target: Trace amine-associated receptor 1 (Homo sapiens) (UniProt Q96RJ0)
# Assay: human TAAR1 agonists, primary screen, Fluo-8 calcium fluorescence, CHO RD-HGA16 cells (AID 624467)
# Conditions: CHO RD-HGA16 TAAR1, Fluo-8 calcium fluorescence; at 3 µM; active compounds read high; vehicle wells 0%, saturating PEA agonist 100%
row,Compound,activation
1,Cc1nc2ccc3ccccc3c2s1.O=[N+]([O-])c1cc([N+](=O)[O-])c(O)c([N+](=O)[O-])c1,inactive: 2.66%
2,O=[N+]([O-])c1cc([N+](=O)[O-])c(-c2cnn(-c3ccccc3)c2)c([N+](=O)[O-])c1,inactive: -0.43%
3,CCOC(=O)C(CC)C1=NC(C)(C)Cc2ccccc21.O=[N+]([O-])c1cc([N+](=O)[O-])c(O)c([N+](=O)[O-])c1 (configuration not stated),inactive: -3.36%
4,O=[N+]([O-])c1cc([N+](=O)[O-])c(Nc2nnnn2CCO)c([N+](=O)[O-])c1,inactive: 0.24%
5,CP(=O)(Nc1ccc(SC(F)(F)F)cc1)Oc1ccccc1 (configuration not stated),inactive: 5.05%
6,CCCOc1ccc(NP(C)(=O)Oc2ccc(Cl)cc2)cc1 (configuration not stated),inactive: 6.18%
7,COc1ccc(-c2ccccn2)cc1.O=[N+]([O-])c1cc([N+](=O)[O-])c(O)c([N+](=O)[O-])c1,inactive: 1.04%
8,COc1ccccc1OP(C)(=O)Nc1c(C)cccc1C (configuration not stated),inactive: 0.94%
9,CN1CCCCC1COC(=O)C1(O)c2ccccc2CCc2ccccc21 (configuration not stated),inactive: 3.25%
10,O=C(O)c1cccc(Nc2c([N+](=O)[O-])cc([N+](=O)[O-])cc2[N+](=O)[O-])c1,inactive: -0.03%
11,CC1=NCCc2c1[nH]c1ccccc21.O=[N+]([O-])c1cc([N+](=O)[O-])c(O)c([N+](=O)[O-])c1,inactive: 2.35%
12,Cc1cc(C)cc(OP(C)(=O)Nc2ccc(C)cc2C)c1 (configuration not stated),inactive: 2.21%
13,CCOC(=O)c1ccc(NP(C)(=O)Oc2cc(C)cc(C)c2)cc1 (configuration not stated),inactive: 7.49%
14,COc1ccccc1OP(C)(=O)Nc1cccc(Br)c1 (configuration not stated),inactive: -2.01%
15,CP(=O)(Nc1cccc(Br)c1)Oc1ccccc1 (configuration not stated),inactive: 7.88%
16,Cc1cc(C)cc(OP(C)(=O)Nc2ccccn2)c1 (configuration not stated),inactive: 7.31%
17,Cc1ccc(C)c(NP(C)(=O)Oc2ccccc2)c1 (configuration not stated),inactive: 3.36%
18,CCN(CC)CCCOC(=O)C(O)(c1ccccc1)c1ccccc1,inactive: 2.45%
19,COc1ccccc1-c1ccccn1.O=[N+]([O-])c1cc([N+](=O)[O-])c(O)c([N+](=O)[O-])c1,inactive: 0.04%
20,Cc1cccc(C)c1OP(C)(N)=O (configuration not stated),inactive: 0.36%
21,CC(C)(C)c1ccc(OP(C)(=O)Nc2ccc(SC(F)(F)F)cc2)cc1 (configuration not stated),inactive: -1.06%

row,Compound,activation
1,O=[N+]([O-])c1ccc2c(c1)C=Nc1ccccc1O2,inactive: 1.72%
2,O=[N+]([O-])c1cc([N+](=O)[O-])c(Nc2cccnc2)c([N+](=O)[O-])c1,inactive: 15.3%
3,COc1ccc(OP(C)(=O)Nc2cccc(F)c2)cc1 (configuration not stated),inactive: 10.8%
4,COc1ccccc1OP(C)(=O)Nc1cc(Cl)ccc1C (configuration not stated),inactive: 3.42%
5,Cc1cc(C)cc(OP(C)(N)=O)c1 (configuration not stated),inactive: 1.44%
6,CCOC(=O)c1ccc(NP(C)(=O)Oc2ccccc2)cc1 (configuration not stated),inactive: 2.75%
7,Cc1ccc(NP(C)(=O)Oc2ccccc2)c(C)c1 (configuration not stated),inactive: 0.38%
8,COc1ccccc1OP(C)(=O)Nc1ccc(C)cc1 (configuration not stated),inactive: 0.91%
9,COc1ccccc1OP(C)(=O)Nc1ccccc1 (configuration not stated),inactive: 2.88%
10,CP(=O)(Nc1ccccc1Br)Oc1ccccc1 (configuration not stated),inactive: 0.52%
11,CP(=S)(Nn1cnnc1)Oc1ccccc1 (configuration not stated),inactive: 1.6%
12,Cc1cc(C)cc(OP(C)(=O)Nc2ccc(SC(F)(F)F)cc2)c1 (configuration not stated),inactive: 5.88%
13,CCc1ccc(OP(C)(=O)N2CCN(c3ccc([N+](=O)[O-])cc3)CC2)cc1 (configuration not stated),inactive: 10.7%
14,CP(=O)(NC(=O)Nc1ccccc1)Oc1ccccc1 (configuration not stated),inactive: 5.83%
15,CP(=O)(Oc1ccccc1)OC(c1ccccc1)C(F)(F)F (configuration not stated),inactive: -2.44%
16,Cc1cccc(C)c1OP(C)(=O)Nc1ccc(SC(F)(F)F)cc1 (configuration not stated),inactive: 7.88%
17,CP(=O)(Nc1ccc(SC(F)(F)F)cc1)Oc1ccc(Cl)cc1 (configuration not stated),inactive: 1.95%
18,CP(=O)(Nc1ccccn1)Oc1ccc(Cl)cc1 (configuration not stated),inactive: -0.52%
19,CCOP(C)(=S)SCC(=O)NC(C)C(=O)O (configuration not stated),inactive: 1.21%
20,CCOC(=O)c1ccc(NP(C)(=O)Oc2ccc(OC)cc2)cc1 (configuration not stated),inactive: 2.08%
21,O=[N+]([O-])c1cc([N+](=O)[O-])c(O)c([N+](=O)[O-])c1.c1ccc(Oc2ccncc2)cc1,inactive: 7.7%
